## Ab-91 heavy chain CDR variants: yeast mating affinities

The target is the same throughout: PDVDLGDISGINAS, from the HR2 region of SARS-CoV-2 spike.

The variants keep the light chain, the linker and the frameworks of Ab-91 (scFv order VL, the linker GGGGSGGGGSGGGGS, VH).
VL: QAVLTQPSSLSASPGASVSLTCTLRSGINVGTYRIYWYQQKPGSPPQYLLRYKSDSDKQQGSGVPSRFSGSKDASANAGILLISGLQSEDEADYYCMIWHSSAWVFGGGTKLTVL
VH: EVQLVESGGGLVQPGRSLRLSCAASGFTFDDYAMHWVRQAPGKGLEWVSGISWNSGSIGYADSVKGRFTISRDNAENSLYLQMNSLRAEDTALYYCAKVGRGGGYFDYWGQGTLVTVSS

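The starting antibody came from a phage panning campaign against this peptide. Variants in AAYL51 differ from the parent at up to three CDR positions; double and triple changes were sampled at random. AlphaSeq pools MATa yeast showing the antibodies with MATalpha yeast showing the peptide. Pairs that bind mate more often; barcode pairs of the diploids are counted by sequencing. The ratio of observed to expected reads was calibrated, replicate by replicate, on BCL2-family standards whose Kd was known from biolayer interferometry. Mating was done three times.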

Variants are written as CDR1, CDR2 and CDR3 of the heavy chain (limits as in the source). Parent: GFTFDDYAMH, GISWNSGSIGYADSVK, VGRGGGYFDY. This list gathers variants with a substitution at G104 (VH, numbered from residue 1). Values are log10 of the apparent Kd in nM; lower means stronger binding. Replicates are averaged; those with no signal do not enter the mean. "no signal" means that the variant was in the library but no mating with the target was seen in any replicate; the authors take this as a sign of poor binding, and no number exists. Background: pairings of library AAYL51 with three empty control strains gave a value in 21% of cases (median 4.54, 5th percentile 3.26). Values in that range, when seen in few replicates, are hard to tell from nonspecific mating. Also given: how often the same scFv was detected with the empty control strains. For reference, the parent read 1.86 as the reference entry and 0.88 as a member of this library.

For GGTFDDYAMH | GISWNSGSIGYADSVK | VGRGGPYFDP, the assay gave no signal (0 of 3 replicates; controls 0 of 9). With GFTFDDYAMT | GISWNSGSIGYADSVK | VGRGGYYFAY the result was 5.20 (1 of 3 replicates; controls 4 of 9). The variant GFTFDDYAMH | GISWNSGCIGYADSEK | VGRGGAYFDY gave no signal (0 of 3 replicates; controls 2 of 9). The variant GHTFDDYAMH | SISWNSGSIGYADSVK | VGRGGRYFDY showed no signal (0 of 3 replicates; controls 0 of 9). The variant GFSFDDYAMH | GISWNVGSIGYADSVK | VGRGGKYFDY showed 3.97 (3 of 3 replicates; controls 3 of 9). The variant GFTFDDYAMH | GISWNQGSCGYADSVK | VGRGGWYFDY gave no signal (0 of 3 replicates; controls 2 of 9). For GFTFDDYATH | GISWNSGSIGYADSVK | VGRGGSYFQY, the assay gave 4.30 (1 of 3 replicates; controls 3 of 9). The variant WFTFDDYAMH | GISWNSGSIGYRDSVK | VGRGGVYFDY showed no signal (0 of 3 replicates; controls 0 of 9).

The variant GFTFDCYAMH | GISWNSGSIGQADSVK | VGRGGHYFDY showed no signal (0 of 3 replicates; controls 0 of 9). The variant GFHFDDYAMH | GISWNSGSIGLADSVK | VGRGGSYFDY showed 1.08 (3 of 3 replicates; controls 4 of 9). For GFTFDDYARH | GISGNSGSIGYADSVK | VGRGGMYFDY, the assay gave 4.85 (3 of 3 replicates; controls 4 of 9). With GFTFDDYAMH | GISWNSRSIGYADSKK | VGRGGMYFDY the result was no signal (0 of 3 replicates; controls 0 of 9). The variant GFTFDHYAQH | GISWNSGSIGYADSVK | VGRGGFYFDY showed no signal (0 of 3 replicates; controls 2 of 9). For GFTFDDYAMH | GIDWNSGSIGYADSVK | VGWGGNYFDY, the assay gave 3.80 (3 of 3 replicates; controls 2 of 9). With GFTFDEYAMQ | GISWNSGSIGYADSVK | VGRGGEYFDY the result was no signal (0 of 3 replicates; controls 0 of 9). With GFTHDDYAMH | GISWNSGSIGYADSVK | VGVGGLYFDY the result was 3.52 (1 of 3 replicates; controls 0 of 9).

For GFTFDDYAMH | GISWNSESIGSADSVK | VGRGGFYFDY, the assay gave no signal (0 of 3 replicates; controls 0 of 9). For GFTFDDYAMH | GISWVSCSIGYADSVK | VGRGGKYFDY, the assay gave 4.97 (2 of 3 replicates; controls 2 of 9). With GFTFDDYAVH | GISWNSGSIGYADSVK | VGRGGQYFDY the result was no signal (0 of 3 replicates; controls 1 of 9). The variant GFTFDDYAMH | GISWNSGSIGYADSNK | VGRGGIYFDF showed no signal (0 of 3 replicates; controls 0 of 9). For GFTFDDYAMH | GIWWNSGSPGYADSVK | VGRGGYYFDY, the assay gave 5.15 (2 of 3 replicates; controls 2 of 9). With GFTFDDYAMH | GISWNSGSIGYADSVN | VGRGGQYFDW the result was 1.13 (3 of 3 replicates; controls 1 of 9). For GFTFDDYAMH | GISWNSGSIVYADSVK | WGRGGHYFDY, the assay gave no signal (0 of 3 replicates; controls 1 of 9). With DFTFDDYAMH | GISWNSGSIGYADSKK | VGRGGWYFDY the result was 4.17 (1 of 3 replicates; controls 3 of 9).

With GFTFDDYAMH | GISWNSGSIFYADSVK | VGRGGSYKDY the result was no signal (0 of 3 replicates; controls 2 of 9). For GFTFDDYAMH | GISWNSGSIGYADSVK | VQRGGCYFDY, the assay gave no signal (0 of 3 replicates; controls 0 of 9). With GFTFDDYAMH | GISWNIGSIGYADSVK | VGVGGQYFDY the result was 3.77 (1 of 3 replicates; controls 2 of 9).

Excerpt, the final 3 entries:

CDR-H1	CDR-H2	CDR-H3	mean log10 Kd (nM)	seen in	control signals
GFTFDDYAMH	GISWNSGSIFYADSVK	VGRGGSYKDY	no signal	0 of 3	2 of 9
GFTFDDYAMH	GISWNSGSIGYADSVK	VQRGGCYFDY	no signal	0 of 3	0 of 9
GFTFDDYAMH	GISWNIGSIGYADSVK	VGVGGQYFDY	3.77	1 of 3	2 of 9

From the AlphaSeq antibody data of Engelhart et al. 2022 (doi:10.1038/s41597-022-01779-4), copy in the FLAb collection.